{"source": "patent US11103509B2", "about": "(University of Kentucky Research Foundation, priority 2018, dated 2021)", "origin": "cited, not measured here", "tested_on": "pain in cancer patients", "settings": "NCT00490139 Control group: trastuzumab 8 mg/kg IV, then 6 mg/kg IV every 3 weeks, 52 weeks; cited from earlier work", "data": [{"substance": "trastuzumab", "values": [{"measurement": "Arthralgia, Patient counts", "value": "402/2076"}, {"measurement": "Arthralgia, patient percentage", "value": "(19.36%)"}, {"measurement": "Back Pain, patient percentage", "value": "(6.17%)"}, {"measurement": "Bone Pain, Patient counts", "value": "123/2076"}, {"measurement": "Bone Pain, patient percentage", "value": "(5.92%)"}, {"measurement": "Headache, Patient counts", "value": "262/2076"}, {"measurement": "Headache, patient percentage", "value": "(12.62%)"}, {"measurement": "Musculoskeletal pain, patient percentage", "value": "(5.30%)"}, {"measurement": "Pain in Extremity, Patient counts", "value": "175/2076"}, {"measurement": "Pain in Extremity, patient percentage", "value": "(8.43%)"}]}]}
